# Apparent affinities of Ab-14 variants for a coronavirus HR2 peptide

Binding partner: SARS-CoV-2 spike HR2 peptide, sequence PDVDLGDISGINAS.

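Phage display of a naive human antibody library on the peptide gave the parent. Designed CDR sequences, proposed from the first random library and measured here. Their group label is 14L_GP_HC (GP: Gaussian process model; HC: hill climbing; a sequence that several methods proposed may carry one label only). In AlphaSeq, yeast of one mating type display the scFv and yeast of the other type display the target. Binding brings cells together so that they mate, and sequencing counts the barcode pairs among the diploids. A regression on co-assayed BCL2-family reference pairs converts the normalised counts of each replicate to an apparent Kd. Each pool was mated in six replicate cultures.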

Ab-14 is the parent antibody, in scFv form: VH, then a (GGGGS)3 linker, then VL. The heavy chain is unchanged in all variants.
VH: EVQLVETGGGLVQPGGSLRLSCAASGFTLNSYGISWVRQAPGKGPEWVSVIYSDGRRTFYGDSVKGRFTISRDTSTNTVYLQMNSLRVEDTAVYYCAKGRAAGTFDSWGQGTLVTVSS
VL: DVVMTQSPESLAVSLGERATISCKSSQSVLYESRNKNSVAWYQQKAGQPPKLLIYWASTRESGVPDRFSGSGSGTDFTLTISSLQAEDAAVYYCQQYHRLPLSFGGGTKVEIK

Changes read parent residue, position, new residue, counted from the first residue of the VL shown.
Affinities are written as log10 Kd with Kd in nM; a lower number is a better binder.
Replicates are averaged; those with no signal do not enter the mean.
"ND" means that the variant was in the library but no mating with the target was seen in that replicate; the authors take this as a sign of poor binding, and no number exists.
As a blank, each scFv also met three strains without target: over all light chain designs, 4% of these pairings were detected, typically at 2.64 and seldom below 1.59. For each scFv, signals with the empty controls are counted beside the result, with their mean in brackets.
The authors averaged sequences with at least three values out of six and counted those with two or fewer as poor binders.
The range of this assay differs from that of the first round, and the authors advise against merging the two.

changes | log10 Kd, replicates | mean, log10 nM | control signals
V29W+S38N+W56G+S62N | 0.03 / -0.30 / -0.16 / -0.40 / -0.33 / -0.36 | -0.25 | 0 of 18
S25F+N35T+W56N+S58H+S62T | -0.41 / -0.19 / -0.30 / -0.49 / -0.56 / -0.25 | -0.37 | 0 of 18
S25L+S26E+S28G+W56N | -0.22 / -0.15 / -0.25 / -0.30 / -0.22 / -0.01 | -0.19 | 0 of 18
S25A+S26P+S28G+W56G+T59V | -0.11 / -0.19 / -0.26 / -0.22 / -0.19 / 0.03 | -0.16 | 2 of 18 (3.13)
Q27I+V29Y+S33D+W56A | 0.44 / 0.31 / 0.21 / 0.19 / 0.25 / 0.30 | 0.28 | 4 of 18 (3.18)
S25V+V29F+S38N+W56G+P101T | ND / ND / ND / 1.66 / 2.20 / ND | 1.93 | 0 of 18
S25L+Q27D+W56N+S103N | 0.42 / 0.06 / 0.04 / 0.57 / -0.16 / 0.12 | 0.18 | 2 of 18 (1.69)
S25V+S26L+L30V+S33G+W56E+S62D | -0.10 / -0.16 / -0.20 / -0.45 / -0.26 / 0.05 | -0.19 | 1 of 18 (3.00)
V29E+Y31F+E32Q+W56D | -0.23 / -0.19 / -0.22 / -0.27 / -0.20 / -0.21 | -0.22 | 1 of 18 (2.79)
S25L+S26R+V29T+K36W+W56D | 0.43 / 0.48 / 0.37 / 0.36 / 0.59 / 0.60 | 0.47 | 0 of 18
Q27G+V29W+W56G+S62V | 0.46 / 0.85 / 0.71 / 0.62 / 0.57 / 0.64 | 0.64 | 0 of 18
K24H+S25L+Q27D+K36P+W56N | 0.05 / -0.12 / -0.21 / -0.35 / -0.22 / -0.11 | -0.16 | 1 of 18 (3.49)
S33Q+W56D | 1.09 / 0.09 / -0.35 / -0.10 / -0.58 / 0.24 | 0.07 | 0 of 18
S28V+V29W+W56G | -0.01 / -0.11 / -0.28 / -0.28 / -0.21 / -0.03 | -0.15 | 0 of 18
Q27M+V29D+W56G | 0.00 / 0.03 / -0.06 / -0.04 / -0.18 / -0.09 | -0.06 | 1 of 18 (2.53)
S25I+S26L+L30E+W56H+S62D+H98G | 1.13 / 1.33 / 1.04 / 0.71 / 0.70 / 0.96 | 0.98 | 0 of 18
S25F+Q27D+Y31L+N35H+W56N | 0.62 / 0.60 / 0.26 / 0.35 / 0.41 / 0.69 | 0.49 | 0 of 18
S25L+S28E+V29G+W56D | 0.04 / 0.19 / -0.11 / -0.36 / -0.11 / -0.08 | -0.07 | 0 of 18
S25F+Y31N+W56D | -0.24 / 0.33 / -0.22 / -0.05 / -0.23 / 0.18 | -0.04 | 1 of 18 (2.36)
Q27I+V29Y+R34M+W56E | -0.03 / 0.50 / -0.02 / 0.44 / 0.33 / -0.02 | 0.20 | 1 of 18 (3.29)
S25M+S26E+S28G+L30P+W56G | 0.33 / 0.13 / 0.22 / 0.16 / 0.46 / 0.38 | 0.28 | 0 of 18
Q27W+V29F+W56D | 0.63 / 1.43 / 1.89 / 0.36 / 0.84 / 1.31 | 1.08 | 0 of 18
K24H+S25L+Q27W+S28M+W56N | -0.12 / -0.10 / -0.29 / -0.24 / -0.17 / -0.06 | -0.16 | 0 of 18
S25M+S26E+S28G+W56G+T59Q | -0.02 / -0.11 / -0.33 / -0.24 / -0.28 / 0.17 | -0.14 | 0 of 18
S26A+K36F+W56H+S62D | 0.32 / 0.39 / 0.47 / -0.04 / 0.31 / 0.52 | 0.33 | 2 of 18 (3.09)
S25I+Q27I+V29Y+W56E+S103M | 0.03 / 0.07 / -0.21 / -0.11 / -0.16 / -0.02 | -0.07 | 1 of 18 (2.52)
Q27I+V29G+N35M+W56E+S62E | 0.07 / -0.18 / -0.12 / 0.08 / -0.17 / 0.12 | -0.03 | 2 of 18 (1.80)
K24H+Q27P+W56G | 0.20 / -0.23 / 0.14 / 0.13 / 0.09 / 0.10 | 0.07 | 0 of 18
K24H+S25L+Q27F+W56N+S103N | 0.79 / 0.29 / 0.24 / 0.67 / 0.26 / 0.34 | 0.43 | 0 of 18
S26Q+V29Q+L30D+W56H+S62D | 0.64 / 0.20 / -0.10 / 0.24 / 0.02 / 0.25 | 0.21 | 1 of 18 (2.00)
K24H+Q27E+W56N+S103Q | 1.42 / 1.58 / 1.54 / 2.64 / 2.26 / 2.03 | 1.91 | 0 of 18
V29W+S33D+W56G | -0.26 / -0.07 / -0.14 / -0.27 / -0.19 / 0.01 | -0.15 | 2 of 18 (3.35)
S25M+S26E+S28G+L30D+N37G+W56G+T59V | 0.32 / 0.43 / 0.36 / 0.39 / 0.74 / 0.60 | 0.47 | 0 of 18
S25L+V29F+N35A+W56G+T59Q | -0.19 / -0.57 / -0.63 / -0.66 / -0.46 / -0.31 | -0.47 | 0 of 18
K24H+S25L+Q27D+W56N+S103I | 0.19 / -0.08 / -0.11 / -0.18 / 0.18 / 0.22 | 0.04 | 1 of 18 (1.17)

Source: Li et al. 2023 (doi:10.1038/s41467-023-39022-2), MIT Lincoln Laboratory and A-Alpha Bio; data file from the FLAb repository.